Source: US9206232B2, “Organic compounds and their uses” (Novartis AG, priority 2009, dated 2015)

By UniProt entry, the sequences of proteins in these tests, tags left out. Where a name states a change or a piece, a line headed by the entry shows the natural chain unless it says otherwise.
UniProt P26664: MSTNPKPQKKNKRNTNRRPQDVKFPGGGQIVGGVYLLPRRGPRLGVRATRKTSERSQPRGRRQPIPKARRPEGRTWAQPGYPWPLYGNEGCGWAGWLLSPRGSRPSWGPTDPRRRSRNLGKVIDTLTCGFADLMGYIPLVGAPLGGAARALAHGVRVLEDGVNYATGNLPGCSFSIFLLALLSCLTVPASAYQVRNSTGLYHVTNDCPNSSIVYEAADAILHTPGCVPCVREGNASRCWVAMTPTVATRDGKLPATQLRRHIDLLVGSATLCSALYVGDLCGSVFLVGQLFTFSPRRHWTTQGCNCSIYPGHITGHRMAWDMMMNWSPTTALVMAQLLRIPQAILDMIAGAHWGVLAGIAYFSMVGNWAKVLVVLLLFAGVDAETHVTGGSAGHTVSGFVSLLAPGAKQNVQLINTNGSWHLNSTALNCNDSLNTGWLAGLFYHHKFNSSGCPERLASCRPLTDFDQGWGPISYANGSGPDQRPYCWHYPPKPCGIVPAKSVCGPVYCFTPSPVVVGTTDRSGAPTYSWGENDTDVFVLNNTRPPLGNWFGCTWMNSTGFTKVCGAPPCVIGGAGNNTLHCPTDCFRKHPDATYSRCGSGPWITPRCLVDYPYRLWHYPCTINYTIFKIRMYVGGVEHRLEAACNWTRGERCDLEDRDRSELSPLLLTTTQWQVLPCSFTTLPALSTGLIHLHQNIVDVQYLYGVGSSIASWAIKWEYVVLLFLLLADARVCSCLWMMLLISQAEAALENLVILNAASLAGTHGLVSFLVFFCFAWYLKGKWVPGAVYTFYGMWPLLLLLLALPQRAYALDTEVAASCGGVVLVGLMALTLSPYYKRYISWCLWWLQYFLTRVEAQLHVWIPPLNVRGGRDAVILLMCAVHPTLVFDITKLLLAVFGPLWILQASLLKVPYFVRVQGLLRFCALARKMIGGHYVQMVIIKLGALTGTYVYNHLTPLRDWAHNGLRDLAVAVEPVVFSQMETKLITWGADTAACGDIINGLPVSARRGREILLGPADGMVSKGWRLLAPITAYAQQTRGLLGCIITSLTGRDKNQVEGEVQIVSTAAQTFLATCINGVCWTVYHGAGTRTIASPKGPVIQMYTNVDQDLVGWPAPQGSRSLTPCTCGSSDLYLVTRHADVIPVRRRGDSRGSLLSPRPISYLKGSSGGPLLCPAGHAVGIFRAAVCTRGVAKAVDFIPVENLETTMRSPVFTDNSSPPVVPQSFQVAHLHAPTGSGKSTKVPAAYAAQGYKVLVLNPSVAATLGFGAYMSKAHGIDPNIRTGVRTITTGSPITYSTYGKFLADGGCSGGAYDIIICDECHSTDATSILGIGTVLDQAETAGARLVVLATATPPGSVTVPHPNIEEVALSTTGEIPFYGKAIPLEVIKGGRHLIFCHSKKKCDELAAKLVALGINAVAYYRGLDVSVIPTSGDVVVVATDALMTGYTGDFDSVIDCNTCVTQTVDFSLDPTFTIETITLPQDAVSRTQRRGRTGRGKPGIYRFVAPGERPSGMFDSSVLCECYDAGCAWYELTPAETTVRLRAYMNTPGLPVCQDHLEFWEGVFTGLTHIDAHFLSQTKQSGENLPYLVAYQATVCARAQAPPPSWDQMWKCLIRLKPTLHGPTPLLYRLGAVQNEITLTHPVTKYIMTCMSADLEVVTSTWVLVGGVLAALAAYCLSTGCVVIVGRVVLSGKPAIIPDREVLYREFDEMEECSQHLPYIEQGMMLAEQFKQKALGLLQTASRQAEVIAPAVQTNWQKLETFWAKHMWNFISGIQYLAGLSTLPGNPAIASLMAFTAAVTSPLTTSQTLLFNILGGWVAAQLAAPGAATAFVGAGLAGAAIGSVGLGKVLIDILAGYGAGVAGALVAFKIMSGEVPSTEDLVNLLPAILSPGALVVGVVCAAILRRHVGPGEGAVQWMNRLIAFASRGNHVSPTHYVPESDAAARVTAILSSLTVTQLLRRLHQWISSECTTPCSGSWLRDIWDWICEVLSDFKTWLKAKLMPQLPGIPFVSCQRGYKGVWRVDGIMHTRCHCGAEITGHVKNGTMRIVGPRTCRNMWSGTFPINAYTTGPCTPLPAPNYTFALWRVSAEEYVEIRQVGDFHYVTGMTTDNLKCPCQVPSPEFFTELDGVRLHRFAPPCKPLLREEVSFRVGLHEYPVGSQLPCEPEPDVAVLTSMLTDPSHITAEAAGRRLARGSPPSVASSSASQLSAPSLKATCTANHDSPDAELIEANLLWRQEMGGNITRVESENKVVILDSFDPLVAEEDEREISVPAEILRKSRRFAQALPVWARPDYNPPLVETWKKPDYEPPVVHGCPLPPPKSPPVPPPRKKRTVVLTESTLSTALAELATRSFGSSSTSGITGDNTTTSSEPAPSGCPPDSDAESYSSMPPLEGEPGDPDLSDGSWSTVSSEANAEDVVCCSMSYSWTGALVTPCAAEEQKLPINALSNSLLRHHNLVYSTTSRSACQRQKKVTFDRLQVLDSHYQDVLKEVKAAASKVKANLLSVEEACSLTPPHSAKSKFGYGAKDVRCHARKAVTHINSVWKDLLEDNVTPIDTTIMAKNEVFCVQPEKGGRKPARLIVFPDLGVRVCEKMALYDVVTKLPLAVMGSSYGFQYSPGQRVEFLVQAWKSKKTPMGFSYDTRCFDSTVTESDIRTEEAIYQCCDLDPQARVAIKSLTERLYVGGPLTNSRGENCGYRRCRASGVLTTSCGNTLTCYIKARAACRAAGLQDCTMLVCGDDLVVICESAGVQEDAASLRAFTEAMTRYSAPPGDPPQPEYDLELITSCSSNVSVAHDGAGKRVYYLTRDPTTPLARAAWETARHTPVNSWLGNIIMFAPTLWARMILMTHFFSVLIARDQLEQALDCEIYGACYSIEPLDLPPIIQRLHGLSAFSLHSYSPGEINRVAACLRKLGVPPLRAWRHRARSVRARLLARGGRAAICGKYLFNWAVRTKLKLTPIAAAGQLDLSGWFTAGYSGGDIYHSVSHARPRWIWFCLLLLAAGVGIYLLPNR

Target: HCV NS3-4A serine protease (full-length NS3-4A protein) (Hepatitis C virus genotype 1a (isolate 1) (HCV), UniProt P26664)
Test: HCV NS3-4A protease assay
Assay type: biochemical, HCV genotype 1a
Settings: genotype 1a strain HCV-1, fluorogenic peptide substrate, read-out: Protease assay Ex. 12 IC50
Description: The inhibitory activity of certain compounds of Table A against HCV NS3-4A serine protease is determined in a homogenous assay using the full-length NS3-4A protein (genotype 1a, strain HCV-1) and a commercially available internally-quenched fluorogenic peptide substrate as described by Taliani, M., et al. 1996 Anal. Biochem. 240:60-67, which is incorporated by reference in its entirety.

SMILES: CC[C@@H]1C[C@]1(NC(=O)[C@@H]1C[C@@]2(CN1C(=O)[C@@H](NC(=O)[C@@H](NC(=O)[C@@H]1CCCN1CC)C1CCCCC1)C(C)(C)C)C(C)(C)C21CCC1)C(=O)NS(=O)(=O)N(CC)CC [Compound 100]
- IC50: 10 nM

SMILES: C=C[C@@H]1C[C@]1(NC(=O)[C@@H]1C[C@@]2(CN1C(=O)[C@@H](NC(=O)[C@@H](NC(=O)[C@@H]1CCCN1C1CCCC1)C(C)(C)C)C(C)(C)C)C(C)(C)C21CCC1)C(=O)NS(=O)(=O)N1CCCC1 [Example 27, (5R,8S)-7-[(2S)-2-{[(2S)-2-({[(2S)-1-cyclopentylpyrrolidin-2-yl]carbonyl}amino)-3,3-dimethylbutanoyl]amino}-3,3-dimethylbutanoyl]-10,10-dimethyl-N-{(1R,2S)-1-[(pyrrolidin-1-ylsulfonyl)carbamoyl]-2-vinylcyclopropyl}-7-azadispiro[3.0.4.1]decane-8-carboxamide]
- IC50: 10 nM
